# OPERA 2.9 data: intrinsic clearance values

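The numbers are reported measurements, compiled and curated for the OPERA QSAR suite. The files give a single number for a compound and property, which may rest on several reports. Method and conditions are not stated for these values. The measured form (salt, isomer or mixture) is not always the one drawn. Some entries may be limits or estimates that an upstream database listed as plain numbers.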

Clint is human hepatic intrinsic clearance in µL/min per million cells; 0 means that no clearance was seen.

structure (SMILES),name,Clint (µL/min/10^6 cells)
CCCCCCOc1ccc(O)cc1,4-(hexyloxy)phenol,83.6
CCc1cc(Cc2cc(CC)cc(C(C)(C)C)c2O)c(O)c(C(C)(C)C)c1,"2,2'-methylenebis(ethyl-6-tert-butylphenol)",0
Cn1cnc([N+](=O)[O-])c1Sc1ncnc2nc[nH]c12,Azathioprine,0
CN(C)C(=O)Nc1ccc(Cl)c(Cl)c1,Diuron,12.15
CC(C)(c1cc(Br)c(O)c(Br)c1)c1cc(Br)c(O)c(Br)c1,"3,3',5,5'-tetrabromobisphenol a",50.5
CCC(CC)C(=O)O, 2-Ethylbutyric acid ,9.62
Nc1cccc2c(N)cccc12,"1,5-diaminonaphthalene",0
COc1ccc(C(=O)NCc2ccc(OCCN(C)C)cc2)cc1OC,Itopride,11
COCCOC[C@H](CC1(C(=O)N[C@H]2CC[C@@H](C(=O)O)CC2)CCCC1)C(=O)Oc1ccc2c(c1)CCC2,Candoxatril,9.898
COc1ccc2c(c1)c(CC(=O)O)c(C)n2C(=O)c1ccc(Cl)cc1,Indomethacin,9.35
O=c1c(-c2ccc(O)cc2)coc2cc(O)cc(O)c12,Genistein,18.69
CN1CCc2cccc3c2[C@H]1Cc1ccc(O)c(O)c1-3.CN1CCc2cccc3c2[C@H]1Cc1ccc(O)c(O)c1-3.Cl.Cl.O,Apomorphine hydrochloride hydrate,17.4
CC(=O)c1ccccc1,Acetophenone,0
CC(Cc1ccc(O)c(O)c1)C(C)Cc1ccc(O)c(O)c1 (stereo unspecified),Nordihydroguaiaretic acid,270
Cc1ccc(O)cc1,4-methylphenol,39.66
CN1CCN(CCCN2c3ccccc3Sc3ccc(Cl)cc32)CC1,Prochlorperazine,5.452
C=CCc1ccccc1OCC(O)CNC(C)C (stereo unspecified),Alprenolol,17.4
Clc1ccccc1C(c1ccccc1)(c1ccccc1)n1ccnc1,Clotrimazole,77.1
CN1CCC[C@H]1c1cccnc1,Nicotine,4.44
O=S(=O)([O-])c1ccc(N=Nc2c(O)ccc3cc(S(=O)(=O)[O-])ccc23)cc1.[Na+].[Na+],Fd&c yellow 6,18.9
CC(=O)OCCOCCOCCOC(C)=O,Triethylene glycol diacetate,206
CCCCCc1ccc(N)cc1,4-pentylaniline,18.2
Cc1ncc(CO)c(CO)c1O,Pyridoxine,0
CCNc1ccc(C(=C2C=CC(=[N+](CC)CC)C=C2)c2ccc(N(CC)CC)cc2)c2ccccc12.[Cl-],Basic blue 7,3.21
CC(C)(C)c1ccc(O)c(C(C)(C)C)c1,"2,4-di-tert-butylphenol",2.52
CCCC(C)C(=O)O (stereo unspecified), 2-Methylpentanoic acid ,10.2
N[C@@H](Cc1cc(I)c(Oc2cc(I)c(O)c(I)c2)c(I)c1)C(=O)O,Levothyroxine,0
CCCCCCCCCCCC[N+](C)(C)C.[Cl-],Dodecyltrimethylammonium chloride,16.2
CCCCCCCCCCCC(=O)OC,Methyl laurate,445.2
O=C(O)c1ccccc1C(=O)OCc1ccccc1,Benzyl hydrogen phthalate,0

A selection of 5 entries from above:

structure (SMILES),name,Clint (µL/min/10^6 cells)
COCCOC[C@H](CC1(C(=O)N[C@H]2CC[C@@H](C(=O)O)CC2)CCCC1)C(=O)Oc1ccc2c(c1)CCC2,Candoxatril,9.898
CCC(CC)C(=O)O, 2-Ethylbutyric acid ,9.62
CCCCCCCCCCCC(=O)OC,Methyl laurate,445.2
Clc1ccccc1C(c1ccccc1)(c1ccccc1)n1ccnc1,Clotrimazole,77.1
Cn1cnc([N+](=O)[O-])c1Sc1ncnc2nc[nH]c12,Azathioprine,0

Values as listed in the OPERA 2.9 repository of K. Mansouri.